In patent US8058243B2, “Method for treating a brain cancer with ifenprodil” (HSC Research and Development Limited Partnership, priority 2006, dated 2011):

Tested on: murine neural precursor cells (neurosphere cultures)
Assay: HTS of LOPAC library against secondary neurosphere cultures, MTT proliferation assay at 3 μM, day 7 (z score, P value)
Settings: LOPAC primary screen

Substance: R-(−)-Fluoxetine hydrochloride
- Z score: −0.128
